According to patent US6916822B2, “Phenoxyalkylamine derivatives useful as opioid δ receptor agonists” (Meiji Seika Kaisha, Ltd., priority 2000, dated 2005):
pKi: −log10 of the molar value.

molecular target: T1, opioid δ receptor (Rattus norvegicus, UniProt P33533); assay: Binding affinity for opioid δ receptor ([3H]-Naltrindole binding experiment); conditions: membrane fraction from rat forebrain; [3H]-Naltrindole 1 nM; 25° C., 90 minutes; Ki calculated from IC50 by Cheng-Prusoff equation
T1 construct: A membrane fraction of opioid δ receptor was prepared from the rat forebrain; from tissue; host or cells: rat forebrain membrane fraction

| SMILES | pKi |
| --- | --- |
| CC(C)N(C(=O)c1ccc(Cc2ccccc2OCCN2CCC3(CC2)C(=O)NCN3c2ccccc2)cc1)C(C)C [Example 32, 8-[2-[2-(4-Diisopropylcarbamoylbenzyl)phenoxy]ethyl]-1-phenyl-1,3,8-triazaspiro[4,5]decan-4-one] | 6.29 |
| CCN(CC)C(=O)c1ccc(Cc2ccccc2OCCN2CCC(C(C)=O)(c3ccccc3)CC2)cc1 [Example 49, 4-Acetyl-1-[2-[2-(4-diethylcarbamoylbenzyl)phenoxy]ethyl]-4-phenylpiperidine] | 6.03 |
| O=C(c1ccc(Cc2ccccc2OCCN2CCC(n3c(=O)[nH]c4ccccc43)CC2)cc1)N1CCCC1 [Example 15, 4-(1,3-Dihydro-2H-benzimidazol-2-on-1-yl)-1-[2-[2-(4-pyrrolidinocarbonyl-benzyl)phenoxy]ethyl]piperidine] | 6.55 |
| CC(C)COC(=O)c1ccc(Cc2ccccc2OCCN2CCC(n3c(CO)nc4ccccc43)CC2)cc1 [Example 103, 1-[2-[2-(4-Isobutyloxycarbonylbenzyl)phenoxy]ethyl]-4-(2-hydroxymethyl-1H-benzimidazol-1-yl)piperidine] | 7.14 |
| CCN(CC)C(=O)c1ccc(Cc2ccccc2OCCN2CCC3(CC2)C(=O)N(C)CN3c2ccccc2)cc1 [Example 36, 8-[2-[2-(4-Diethylcarbamoylbenzyl)phenoxy]ethyl]-3-methyl-1-phenyl-1,3,8-triazaspiro[4,5]decan-4-one] | 6.62 |
| CCC(C)C(=O)c1ccc(Cc2ccccc2OCCN2CCC(n3c(CO)nc4ccccc43)CC2)cc1 (stereo not drawn) [Example 110, 4-(2-Hydroxymethyl-1H-benzimidazol-1-yl)-1-[2-[2-[4-(2-methylbutyryl)benzyl]phenoxy]ethyl]piperidine] | 7.06 |
